From PubChem
PglD DTNB: C. jejuni PglD acetyltransferase inhibitors, primary screen, biochemical, DTNB colorimetric, single point; UDP-N-acetylbacillosamine N-acetyltransferase PglD (Campylobacter jejuni); purified PglD enzyme, DTNB colorimetric CoA detection; inhibition, % at 12.5 µM; 0.098% of 360,000 active; in the data active = inhibition above about 16%, passing the limit was not always enough
EWS-Fli inh: EWS/Fli-driven NR0B1 reporter inhibitors, primary screen, A673 cells, NR0B1 luciferase, luminescence, MLPCN library; viability-normalised; inhibition, % at 12.6 µM; 0.67% of 350,000 active; AID 651661, 2012;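 active = mean inhibition of at least 50% after viability correction, with every replicate also passing that limit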;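 also: firefly luciferase signal divided by Alamar Blue viability fluorescence both relative to DMSO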
LGR2 inh: inhibitors of bursicon-induced LGR2 CRE-luciferase signal, primary screen, cell-based, HEK293, CRE-luciferase reporter, bursicon stimulation. Drosophila bursicon receptor LGR2 (rickets). bursicon-stimulated, 4 h. inhibition, % at 9.99 µM. 0.35% of 380,000 active;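 active = drop in luminescence signal, shown as inhibition above about 50% in the replicate tests, limit read from the data, passing the limit was not always enough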;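 also: agonist challenge used bursicon conditioned medium at about half maximal strength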
miR122 inh: miR-122 Renilla sensor signal increase in Huh7, primary screen, miR-122 inhibitor project, cell-based, single point, plate reader | Huh7 miR-122 Renilla luciferase sensor, 48 h; neutral wells = 0, positive control = 100 | activation (reporter increase), % at 12.5 µM | 0.3% of 340,000 active | AID 602342, 2012;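 active = mean replicate activation score at least 90 and every replicate individually at or above 90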;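 also: higher luciferase means less miR-122 activity so hits act as miR-122 inhibitors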
UUG fidelity: modulators of yeast start codon fidelity, primary screen, whole organism, S. cerevisiae, single point, plate reader; S. cerevisiae UUG-firefly luciferase reporter, luminescence/redox ratio; activity score, % at 18.7 µM; actives 0.13% (n = 350,000); AID 602363, 2012;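 active = replicate mean at a twofold rise or more, about +100% in these data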;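 also: firefly luciferase made from a UUG start codon reports start codon fidelity; reporter light over untreated wells divided by growth signal over untreated wells; some hits fall short of that in this replicate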
CFTR F508del cor: F508del CFTR correction, initial screen, CFBE line, single point; 0.36% of 350,000 active; CFBE cells, YFP halide quenching; stimulated with forskolin plus potentiator P3; % fluorescence drop versus neutral controls; activity (quench increase), % at 7.58 µM;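 active = mean added fluorescence quench of at least 8% versus neutral control, with both replicates also reaching 8%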;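 also: cells transiently co-express mutant CFTR-F508del with the halide-sensitive YFP; corrector assay measuring rescue of mutant channel to the surface after 24 h compound exposure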
PglD confirm: PglD acetyltransferase inhibitors, confirmation, biochemical, DTNB absorbance, single point, cherry-picked samples; shares compounds with PglD DTNB; 320 tested, under 10 active; Purified C. jejuni PglD, DTNB absorbance 412 nm; inhibition, % at 20 µM; AID 743156, 2013;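 active = mean inhibition across replicates of at least 20% with every single replicate also at 20% or more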;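 also: initial rate of CoA release by acetyl transfer from AcCoA to the UDP-4-amino sugar; 0% = median of neutral control wells and 100% = median of positive control wells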
The depositor's hits bear a star; . = not tested or not shown; [ ] = remark or other dose. In the library only some 1.3% were active in any assay of this set; here they are far more common.

SMILES	PglD DTNB	EWS-Fli inh	LGR2 inh	miR122 inh	UUG fidelity	CFTR F508del cor	PglD confirm
O=S(=O)(c1ccc(F)cc1)N1CCCC(CO)C1 (configuration not stated)	32.7*	.	.	-5.6	-1.2	.	-1.8
COC(=O)NCc1cccc(CNC(=O)OC)c1	29.8*	.	.	1.8	-3.1	.	2.4
O=C(NCCCN1CCN(c2cccc(Cl)c2)CC1)c1ccc(N2CCCC2=O)cc1	35.5*	.	.	5.3	-5.3	.	6.0
O=C(NCCCN1CCN(c2cccc(Cl)c2)CC1)c1cccc(N2CCCC2=O)c1	.	.	.	6.6	.	.	.
Cc1c(C(=O)O)oc2c3c(ccc12)OCCO3	24.3*	.	-8.8	-4.0	-12.7	.	-1.6
COc1ccc(F)cc1S(=O)(=O)N1CCC(C(N)=O)CC1	22.1*	.	17.6	-3.9	1.9	.	-2.5
COc1ccc(C(C)(C)C)cc1S(=O)(=O)N1CCC(C(N)=O)CC1	.	.	1.4	21.7	.	.	.
Cc1ccc(S(=O)(=O)CCC(=O)OCC(=O)NCc2ccc(F)cc2)cc1	-3.0	0.1	5.8	-1.3	-9.6	-0.8	.
COCc1nc2ccccc2n1CCOc1ccccc1OC	24.3*	.	.	-1.3	-1.9	.	-0.6
Cc1ccc(C(C(=O)NC(C)(C)C)N(C(=O)CCC(=O)Nc2ccccn2)c2ccccc2F)cc1 (configuration not stated)	1.4	1.0	5.0	-1.0	4.6	1.4	.
CCOc1ccc(NC(=O)CSc2nc3cc(C(=O)NCC4CCCO4)ccc3c(=O)n2CC2CCCO2)cc1 (configuration not stated)	2.1	5.9	13.9	-9.8	-28.6	-0.7	.
O=S1(=O)CCO[C@H]2Cc3ccccc3[C@H]2N1Cc1ccc(F)cc1	27.4*	5.0	-3.8	3.5	14.7	-2.1	-6.1
Cc1ccc(CN2[C@@H]3c4ccccc4C[C@@H]3OCCS2(=O)=O)cc1	1.8	-3.9	-5.4	0.8	-7.7	-1.1	.
COc1ccc(CCNC(=O)c2cc(S(=O)(=O)N(C)C)ccc2N2CCCC2)cc1	1.4	-0.5	-5.0	.	2.7	2.3	.
CC(C(=O)N1CCCc2c1c(=O)oc1ccc(O)cc21)N1CCc2ccccc2C1 (configuration not stated)	23.0*	.	.	9.0	-7.8	.	6.5
CN(CC(=O)N1CCCc2c1c(=O)oc1ccc(O)cc21)Cc1ccccc1	-0.4	.	.	-1.4	-0.9	.	.
CCN(CC)C(=O)CSc1nnc(-c2cc(-c3ccc(Cl)cc3)nc3ccccc23)o1	.	11.4	.	-3.5	.	-0.5	.
CN(C)C(=O)CSc1nnc(-c2cc(-c3cccs3)nc3ccccc23)o1	53.7*	.	.	-1.7	-12.7	.	-8.2
COc1ccc([N+](=O)[O-])cc1NC(=O)C1(c2ccccc2)CCOCC1	-1.8	2.5	3.9	-3.9	7.1	-0.3	.
CN1/C(=C\C(=O)Nc2cccc(Cl)c2)C(C)(C)c2ccccc21	20.3*	-2.5	12.3	-4.0	-19.0	.	12.8
CN1C(=O)C(CC(=O)NC2CCCCC2)SC1=Nc1ccccc1 (configuration not stated)	53.8*	-1.8	3.7	-0.2	-13.6	-1.8	8.2
O=C(NCCC1=CCCCC1)c1cnsn1	42.2*	.	.	-7.3	-0.1	.	-1.3
COc1ccc(/C=C(/NC(=O)c2ccccc2)C(=O)N2CCCC2)cc1	58.3*	3.6	4.2	.	0.7	-1.9	-7.1
CCCNC(=O)C[C@H]1C[C@H]2c3cc(NC(=O)C4CCC4)ccc3O[C@H]2[C@H](CO)O1	2.0	-7.9	-1.5	-4.0[16.7 µM]	-2.5	-0.3	.
CN(c1ccccc1)S(=O)(=O)c1ccc2[nH]c(=O)oc2c1	29.1*	5.4	-11.9	5.3	-7.1	0.0	2.9

Exported comma-delimited: two of the compounds above.
SMILES,PglD DTNB,EWS-Fli inh,LGR2 inh,miR122 inh,UUG fidelity,CFTR F508del cor,PglD confirm
Cc1ccc(S(=O)(=O)CCC(=O)OCC(=O)NCc2ccc(F)cc2)cc1,-3.0,0.1,5.8,-1.3,-9.6,-0.8,.
COCc1nc2ccccc2n1CCOc1ccccc1OC,24.3*,.,.,-1.3,-1.9,.,-0.6

Back to the main list; the 4 compounds before the break are reprinted first.
SMILES	PglD DTNB	EWS-Fli inh	LGR2 inh	miR122 inh	UUG fidelity	CFTR F508del cor	PglD confirm
O=C(NCCC1=CCCCC1)c1cnsn1	42.2*	.	.	-7.3	-0.1	.	-1.3
COc1ccc(/C=C(/NC(=O)c2ccccc2)C(=O)N2CCCC2)cc1	58.3*	3.6	4.2	.	0.7	-1.9	-7.1
CCCNC(=O)C[C@H]1C[C@H]2c3cc(NC(=O)C4CCC4)ccc3O[C@H]2[C@H](CO)O1	2.0	-7.9	-1.5	-4.0[16.7 µM]	-2.5	-0.3	.
CN(c1ccccc1)S(=O)(=O)c1ccc2[nH]c(=O)oc2c1	29.1*	5.4	-11.9	5.3	-7.1	0.0	2.9
CN(Cc1ccccc1)S(=O)(=O)c1ccc2[nH]c(=O)oc2c1	-3.1	-1.6	5.2	3.1	0.4	-1.3	.
O=C(CSc1ccccc1)NCCc1ccc(F)cc1	75.7*	-31.7	3.6	.	3.7	2.0	-1.2
O=C(CSc1ccccc1)NCCc1ccccc1	-0.5	-48.6	-25.7	-5.5	3.2	-0.5	.
O=C(Oc1coc(CSc2nnc(NC(=O)C3CC3)s2)cc1=O)c1c(F)cccc1F	63.4*	22.7	-2.6	15.9	-12.7	1.0	4.0
Cc1c(C(=O)NC(C)C)sc2ncn(CC(=O)N3CCC(C)CC3)c(=O)c12	24.5*	.	-28.8	0.0	6.1	.	-0.4
O=C(OCC(=O)N1CCCc2ccccc21)c1cnc(Cl)c(Cl)c1	.	12.1	-15.0	.	.	.	.
O=C(OCC(=O)N1CCCC1)c1cnc(Cl)c(Cl)c1	25.2*	3.0	1.9	4.7	-9.0	4.0	-10.5
CC(C)(C)C(=O)C1=C(O)C(=O)N(Cc2ccccc2)C1c1ccccc1F (configuration not stated)	73.4*	-0.4	2.7	238.7*	-29.0	0.4	-10.5
C=CCc1c(OC)ccc2c1c(S(=O)(=O)c1ccc(C)cc1)cn2COC	21.7*	-4.7	-2.0	53.2	8.5	-2.2	1.2
Cc1ccc(C(=O)NCc2ccc3c(c2)OCO3)cc1	-1.0	-12.9	-2.3	-0.8	-7.9	1.3	.
Cc1ccc(CN(c2ccc(C(=O)NCc3ccc4c(c3)OCO4)cc2)S(C)(=O)=O)cc1	26.6*	.	.	3.0	-4.8	.	-2.1
O=C(Nc1ccccc1)C1CCOC1=O (configuration not stated)	-3.8	-1.1	-1.2	-4.6	13.6	-1.4	.
CC(C)OCCCn1c(=NC(=O)c2ccncc2)c(C#N)cc2c(=O)n3ccccc3nc21	4.3	.	.	1.3	-13.3	.	.
CC(C)OCCCn1c(=NC(=O)c2cccs2)c(C#N)cc2c(=O)n3ccccc3nc21	68.3*	-10.5	-15.9	-5.3	-10.2	0.2	-8.4
CCC(C)(C)NC(=O)Cc1ccc(C)cc1	47.6*	.	.	-15.1	-8.8	.	-2.1
CCCCNC(=O)Cc1ccc(C)cc1	.	1.3	-3.5	.	.	.	.
CCn1cc(C(=O)NCCCN2CCCC(C)C2)c(=O)c2cc(S(=O)(=O)N3CCOCC3)ccc21 (configuration not stated)	24.2*	.	28.3	-2.2	-12.9	-0.5	8.4
S=C1NCCOCCOCCOCCN1	-0.4	.	.	-4.0	-18.0	.	.
COc1cc(CC(=O)NCc2ccco2)cc(OC)c1OC	21.9*	.	.	-1.1	-6.2	.	-1.2
CCN=C1Sc2nc3ccc(OCC)cc3cc2CN1CCOC	21.1*	.	.	-6.4	-19.9	.	-1.4
COc1ccc(NC(=O)N2CCCc3cc(C)ccc32)c(OC)c1	30.4*	-3.5	3.2	.	-4.6	-2.7	-7.6
